Ab-14 heavy chain CDR variants: yeast mating affinities

Target: peptide PDVDLGDISGINAS, taken from heptad repeat 2 (HR2) of SARS-CoV-2 spike.

Parent scFv Ab-14: VH joined to VL by the linker GGGGSGGGGSGGGGS. Changes lie in the heavy chain CDRs alone.
VH: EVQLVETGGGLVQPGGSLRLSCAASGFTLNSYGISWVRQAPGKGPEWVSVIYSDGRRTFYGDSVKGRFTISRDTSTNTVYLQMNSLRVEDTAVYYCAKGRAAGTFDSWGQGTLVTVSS
VL: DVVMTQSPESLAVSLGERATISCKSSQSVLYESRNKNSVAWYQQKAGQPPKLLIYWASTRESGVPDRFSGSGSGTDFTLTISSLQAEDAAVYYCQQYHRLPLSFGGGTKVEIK

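Library AAYL49 holds single substitutions and randomly drawn double and triple substitutions in the CDRs. Affinity was read by AlphaSeq, a pooled yeast mating assay with surface-displayed partners. After mating in shaken culture at 30 °C for 16 h, diploids were selected and their barcode pairs sequenced. Scores were corrected for input abundance and mapped to Kd with protein pairs of known affinity run in the same pool. The assay was run in three technical replicates.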

Substitutions are numbered in sequence along the VH above, starting at 1 (not Kabat).
Every variant below is changed at I34 of the VH (sequential numbering).
Each Kd is an estimate from the mating assay, the geometric mean of the replicates in which the pair was seen; lower is stronger.
"not detected" means that the variant was in the library but no mating with the target was seen in any replicate; the authors take this as a sign of poor binding, and no number exists.
Background: pairings of library AAYL49 with three empty control strains gave a value in 15% of cases (median 11 µM, 5th percentile 680 nM). Values in that range, when seen in few replicates, are hard to tell from nonspecific mating. Also given: how often the same scFv was detected with the empty control strains.

changes,apparent Kd,replicates with signal,empty controls
I34K G55A F59H,10 µM,1 of 3,2 of 9
N30L I34L G99A,83 nM,1 of 3,0 of 9
G33Y I34A V50A,38 µM,1 of 3,0 of 9
I34K I51P R100L,not detected,0 of 3,0 of 9
I34D I51M D54H,not detected,0 of 3,1 of 9
S31Y I34T I51T,not detected,0 of 3,0 of 9
I34V R57A F105V,not detected,0 of 3,3 of 9
L29F I34P Y52F,not detected,0 of 3,2 of 9
F27C I34A,11 µM,1 of 3,1 of 9
Y32W I34S Y52K,9.4 µM,1 of 3,4 of 9
I34C S35M T104I,not detected,0 of 3,1 of 9
I34R G55Q R56T,not detected,0 of 3,0 of 9
L29H I34C T104L,not detected,0 of 3,0 of 9
L29F I34N G103Y,not detected,0 of 3,0 of 9
I34A F59T,7.4 µM,1 of 3,0 of 9
I34G G61D,not detected,0 of 3,2 of 9
G26K L29W I34H,not detected,0 of 3,1 of 9
T28V I34K S107Y,1.9 µM,1 of 3,3 of 9
I34P R56S D62Q,not detected,0 of 3,0 of 9
I34R V50I,18 µM,1 of 3,5 of 9
I34K R57M Y60M,not detected,0 of 3,2 of 9
I34Y S35Q K65E,not detected,0 of 3,0 of 9
I34N V50T G103V,2.5 µM,1 of 3,3 of 9
I34W S53P A102V,120 µM,1 of 3,2 of 9
I34F D106I,not detected,0 of 3,1 of 9
I34T V50E V64Q,not detected,0 of 3,0 of 9
F27V I34M S63I,not detected,0 of 3,2 of 9
I34A Y52P V64D,570 µM,2 of 3,5 of 9
I34R R56F A101F,11 µM,1 of 3,4 of 9
I34L G103L,1.5 µM,2 of 3,1 of 9
F27M L29R I34H,not detected,0 of 3,0 of 9
I34G G55H S63A,not detected,0 of 3,0 of 9
I34F S53D,not detected,0 of 3,0 of 9
F27Y I34W V64G,830 nM,1 of 3,0 of 9
I34H S35A Y60F,not detected,0 of 3,1 of 9
N30P I34P S53T,not detected,0 of 3,2 of 9
G26M I34G D54I,not detected,0 of 3,0 of 9
N30Y I34H,28 µM,1 of 3,0 of 9
I34R V50F D106Y,not detected,0 of 3,1 of 9
G33N I34S A102K,93 µM,1 of 3,2 of 9
I34T T104A,2.7 µM,1 of 3,5 of 9
I34G G103K T104A,not detected,0 of 3,1 of 9
G26V S31W I34S,36 µM,1 of 3,1 of 9
F27N I34V A101F,150 nM,2 of 3,0 of 9
N30V I34K A102C,not detected,0 of 3,1 of 9
I34S D54C R57V,50 µM,3 of 3,7 of 9
I34N S63R T104K,not detected,0 of 3,6 of 9
I34E S53Q R100T,not detected,0 of 3,2 of 9
I34G D62F,not detected,0 of 3,0 of 9
I34E D54C S107Y,13 µM,1 of 3,1 of 9

Data: MIT Lincoln Laboratory AlphaSeq set, Engelhart et al. 2022, doi:10.1038/s41597-022-01779-4, as distributed in FLAb.